Experimental data as given in patent US20040137582A1, “Methods for manufacturing polysaccharide derivatives” (priority 2002, published 2004).

Test system: human skin fibroblasts
Assay: Cell proliferation inhibition index (CPII) assay: direct contact assay
Details: for CPII: solutions, 72 h

## Dextran
Depending on concentration
  relative inhibition of cell proliferation: 18-35%
10-20 mg/mL
  CPII: ca. 18%
Higher concentrations
  CPII: ca. 35%
